Measurements taken from publication PMC7052140.

What was measured:
[1] = target: Cyt1Aa disulfide-bridged protoxin dimer, wild type (Bacillus thuringiensis subsp. israelensis)
[2] = target: Cyt1Aa activated toxin, wild type (Bacillus thuringiensis subsp. israelensis) (UniProt P0A382)

Work on “Cyt1Aa disulfide-bridged protoxin dimer, wild type (complex)” yielded an LC50, cytotoxicity on HEK293 cells (propidium iodide, flow cytometry) [1] of 16.6 µM.
Work on “Cyt1Aa activated toxin, wild type (from UniProt P0A382 1-249) (domain or fragment)” yielded an LC50, cytotoxicity on HEK293 cells (propidium iodide, flow cytometry) [2] of 0.085 µM.
